# Earlier results in US20050170004A1, “Nanoparticles for drug delivery” (priority 2003, published 2005).
# Tested on: multiple sclerosis
# Settings: literature; cited from earlier work
substance,measurement,value
Glatiramer acetate [GA],tolerability / side effect profile,very well tolerated
